These results are taken from ChEMBL document CHEMBL4396888, “Design and Synthesis of Potent, Selective Inhibitors of Protein Arginine Methyltransferase 4 against Acute Myeloid Leukemia” (J Med Chem, 2019).

Structures are written as SMILES.

For assay [1], the species on record is Homo sapiens. The assay can be described thus: Selectivity ratio of IC50 for PRMT1 (unknown origin) to IC50 for PRMT4 (unknown origin).
Assay [2] deals with T1, Histone-arginine methyltransferase CARM1 (Homo sapiens) (UniProt Q86X55).
T1 sequence (whole entry): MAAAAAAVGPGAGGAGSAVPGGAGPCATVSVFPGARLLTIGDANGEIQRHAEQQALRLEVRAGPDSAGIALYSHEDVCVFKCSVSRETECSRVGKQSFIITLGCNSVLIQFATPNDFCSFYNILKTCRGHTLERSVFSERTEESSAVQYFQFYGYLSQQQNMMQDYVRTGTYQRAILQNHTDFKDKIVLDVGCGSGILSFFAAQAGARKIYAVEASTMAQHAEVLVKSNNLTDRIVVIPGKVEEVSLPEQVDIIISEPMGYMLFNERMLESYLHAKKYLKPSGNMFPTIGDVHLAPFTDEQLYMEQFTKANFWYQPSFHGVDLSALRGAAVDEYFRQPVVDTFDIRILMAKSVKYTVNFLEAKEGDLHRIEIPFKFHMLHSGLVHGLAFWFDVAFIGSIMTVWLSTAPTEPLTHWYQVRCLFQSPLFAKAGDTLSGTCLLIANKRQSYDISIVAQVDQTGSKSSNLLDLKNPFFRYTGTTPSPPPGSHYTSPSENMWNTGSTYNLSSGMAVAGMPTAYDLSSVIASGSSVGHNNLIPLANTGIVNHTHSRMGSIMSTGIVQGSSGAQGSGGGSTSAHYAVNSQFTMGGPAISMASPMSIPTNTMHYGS
The assay can be described thus: Inhibition of PRMT4 in human MOLM13 cells assessed as reduction in asymmetric dimethyl arginine level measured after 96 hrs by Western blotting analysis. The assay is classed as cell-based.

The target in assay [3] is T1, Histone-arginine methyltransferase CARM1 (Homo sapiens). In words: Inhibition of wild-type PRMT4 (unknown origin) ectopically expressed in HEK293T cells assessed as reduction in asymmetric dimethyl arginine level measured after 96 hrs by Western blotting analysis. The assay is classed as cell-based. (A western blot detects proteins with antibodies after separation by electrophoresis.)

Assay [4] is filed under the species Homo sapiens. In words: Selectivity ratio of IC50 for PRMT3 (unknown origin) to IC50 for PRMT4 (unknown origin).
The test system of a further assay is MOLM-13. In words: Antiproliferative activity against human MOLM13 cells measured after 6 days by CCK8/SRB assay. The assay is classed as functional, cell-based. (In general: The SRB assay estimates cell density from bound dye.)
For assay [5], the target named is T1, Histone-arginine methyltransferase CARM1 (Homo sapiens). In words: Inhibition of wild-type PRMT4 (unknown origin) ectopically expressed in HEK293T cells assessed as reduction in BAF155 dimethylation measured after 96 hrs by Western blotting analysis. It is filed as cell-based.
The species entered for assay [6] is Homo sapiens. In words: Selectivity ratio of IC50 for PRMT5 (unknown origin) to IC50 for PRMT4 (unknown origin).
The species named for assay [7] is Homo sapiens. In words: Selectivity ratio of IC50 for PRMT8 (unknown origin) to IC50 for PRMT4 (unknown origin).
The species entered for assay [8] is Homo sapiens. The assay can be described thus: Selectivity ratio of IC50 for PRMT6 (unknown origin) to IC50 for PRMT4 (unknown origin).
For assay [9], the species on record is Homo sapiens. The assay can be described thus: Selectivity ratio of IC50 for recombinant full-length human PRMT7 expressed in Sf9 insect cells (unknown origin) to IC50 for PRMT4 (unknown origin).
The target of assay [10] is T1, Histone-arginine methyltransferase CARM1 (Homo sapiens). The assay can be described thus: Inhibition of wild-type PRMT4 (unknown origin) ectopically expressed in HEK293T cells assessed as reduction in PABP1 dimethylation measured after 96 hrs by Western blotting analysis. It is filed as cell-based.

`CNC[C@@H](O)CN1CCc2c(cccc2OCc2ccc(-c3nccs3)cc2)C1`: the Ratio IC50 in the assay listed under Homo sapiens [1] is > 100; in the assay filed under Homo sapiens [4], > 100; in the assay filed under Homo sapiens [6], > 100; in the assay listed under Homo sapiens [7], > 100; in the assay listed under Homo sapiens [8], 380; in the assay filed under Homo sapiens [9] it was > 100. The inhibition result in assay [2], in assay [3], in assay [5] and in assay [10] was “Dose-dependent effect” each time. Besides, the Activity result in the assay with MOLM-13 is “Dose-dependent effect”.
